Tests used:
[1] = test system: Monocyte chemoattractant protein-1 (MCP-1) from brain homogenate; assay: CNS study, MCP-1 from brain homogenate, alcohol 5 days; assay type: in vivo, Wistar albino rats; details: Pro: Protection (%), rats, alcohol 5 Day
[2] = test system: acetylcholinesterase activity of brain homogenate; details: Hangover study, 1 Day alcohol; ingredient amounts in mass concentration (%)
[3] = test system: interleukin-12 (IL-12) from brain homogenate; assay: CNS study, IL-12 from brain homogenate, alcohol 5 days; assay type: in vivo, Wistar albino rats; details: Pro: Protection (%), rats, alcohol 5 Day
Interferon gamma (IFN-γ) = assay: CNS/immunology study, serum IFN-gamma, alcohol 5 days; assay type: in vivo, Wistar albino rats; details: Pro: Protection (%), rats, alcohol 5 Day
Source text: Distilled ethanol was obtained from Bengal Chemicals, West Bengal, India. Biochemical kits like AST, ALT, ALP and total protein were obtained from Span Diagnostics Ltd. Surat, India. Rat IL-12 ELISA kit (Elabscience Biotechnology Co. Ltd, WuHan, P.R.C.), Rat CRP ELISA kit (BD Biosciences, USA), Rat IFN-gamma ELISA kit (Biolegend, San Diego, Calif.) Rat MCP-1 ELISA kit (Elabscience Biotechnology Co. Ltd, WuHan, P.R.C.). All the chemicals used in the present study were of analytical grade and obtained from the following companies: Sigma (St. Louis, Mo., USA), Merck (Mumbai, India), S D fine chemicals (Mumbai, India) and Qualigen (Mumbai, India).
(§1) For hangover, 1 day immunology parameter were considered and for CNS, 5 days immunology parameter were considered.

[4] = test system: interleukin-12 (IL-12) from brain homogenate; assay: Hangover study, IL-12 from brain homogenate, alcohol 1 day; assay type: in vivo, Wistar albino rats; design: concentration or dose not given beside the values; details: 1 Day alcohol
[5] = test system: Monocyte chemoattractant protein-1 (MCP-1) from brain homogenate; assay: Hangover study, MCP-1 from brain homogenate, alcohol 1 day; assay type: in vivo, Wistar albino rats; details: 1 Day alcohol
interleukin-12 (IL-12) = assay: Hangover study, serum IL-12, alcohol 1 day; assay type: in vivo, Wistar albino rats; design: concentration or dose not given beside the values; details: 1 Day alcohol
Source text: as §1

[6] = test system: serum C-reactive protein (CRP); assay: CNS/immunology study, serum CRP, alcohol 5 days; assay type: in vivo, Wistar albino rats; details: Pro: Protection (%), rats, alcohol 5 Day
Source text: as §1

| SMILES | Brain MCP-1 Pro [1] [%] | Brain IL12 Pro [3] [%] | also measured |
| --- | --- | --- | --- |
| C[C@H](N)C(=O)N[C@@H](CCC(N)=O)C(=O)O [1 DP, L-Ala-L-Gln] | 11.28 | – | ACHe Pro (Protection) [2]: 19.76% |
| C[C@H](N)C(=O)N[C@@H](CCC(N)=O)C(=O)O [2.0 DP, L-Ala-L-Gln] | – | 25.08 | – |
| C[C@H](N)C(=O)N[C@@H](CCC(N)=O)C(=O)O [1.5 DP, L-Ala-L-Gln] | 18.23 | 15.94 | IFN-Gamma Pro (Interferon gamma (IFN-γ)): 12.82% |
| C[C@H](N)C(=O)N[C@@H](CCC(N)=O)C(=O)O [3 DP, L-Ala-L-Gln] | 36.58 | – | Brain IL12 Pro (Protection) [4]: 35.21%; Brain MCP-1 Pro (Protection) [5]: 33.29% |
| C[C@H](N)C(=O)N[C@@H](CCC(N)=O)C(=O)O [1.25 DP, L-Ala-L-Gln] | 17.21 | – | IL12 Pro (Protection) (interleukin-12 (IL-12)): 14.95%; CRP Pro [6]: 15.22% |

— patent US10456359B2, “Synergistic beverage composition” (Harsha Chigurupati, priority 2015, dated 2019)
